The values that follow come from publication PMC3469269 (ACS medicinal chemistry letters, 2012).

Amino acid sequences for entries named in this document (tags omitted).
UniProt Q01959, whole entry: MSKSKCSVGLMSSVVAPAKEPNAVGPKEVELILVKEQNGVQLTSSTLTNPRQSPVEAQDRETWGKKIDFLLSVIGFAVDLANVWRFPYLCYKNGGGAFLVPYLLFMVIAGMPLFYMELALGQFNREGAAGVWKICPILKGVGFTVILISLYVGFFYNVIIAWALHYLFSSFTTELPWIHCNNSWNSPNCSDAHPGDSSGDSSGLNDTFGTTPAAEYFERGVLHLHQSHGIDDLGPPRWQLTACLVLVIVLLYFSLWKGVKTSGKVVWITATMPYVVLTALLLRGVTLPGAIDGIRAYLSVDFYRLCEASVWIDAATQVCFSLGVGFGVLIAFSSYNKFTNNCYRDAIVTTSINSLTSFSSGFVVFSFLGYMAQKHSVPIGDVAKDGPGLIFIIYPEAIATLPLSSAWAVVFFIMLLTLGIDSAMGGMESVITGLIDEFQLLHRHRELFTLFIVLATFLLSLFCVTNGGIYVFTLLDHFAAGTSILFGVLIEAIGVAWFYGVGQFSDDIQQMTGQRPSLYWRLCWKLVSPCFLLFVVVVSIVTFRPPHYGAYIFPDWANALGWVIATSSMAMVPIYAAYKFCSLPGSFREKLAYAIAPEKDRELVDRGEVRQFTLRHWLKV

The target in the test is hDAT (Homo sapiens, UniProt Q01959). The experiment in a line: Photoaffinity labeling of DAT with. The class given is binding. To be noted: 10 μM blocker, 10 nM (±)-[125I]-6.

In the case of (−)-cocaine, the “block of incorporation of photoprobe (±)-[125I]-6 into DAT” value was greater than 90%.
